# Assay results taken from patent publication US20030139368A1, “Antithrombotic and/or anti-inflammatory composition combining purine activity and NSAID activity” (priority 2000, published 2003).
# Test system: human platelets
# Experiment: Response of human platelets stimulated by collagen
# Type: cell-based
# Conditions: collagen 0.19 mg/ml; substance 2 mM
# Description: Platelet rich plasma was prepared by centrifugation using known methods.
# Measurements were performed using an aggregometer marketed under the name “Chrono-log”. The measurements were processed and digitized using an “MP30 Biopac” data acquisition system.
# We studied the response of human platelets stimulated by collagen (0.19 mg/ml, Biodata). Two parameters were measured: the latency time (elapsed time between bringing the platelets into contact with collagen and the beginning of aggregation) and the maximum amplitude of aggregation.
smiles,measurement,value
O=C([O-])c1ccccc1O.[Na+] [sodium salicylate],latency time (contact with collagen to beginning of aggregation),no effect
same,maximum response (maximum amplitude of aggregation) to collagen,not modified
